Results taken from patent publication US20200297862A1, “METHODS OF USING BISPECIFIC ANTIGEN-BINDING CONSTRUCTS TARGETING HER2” (Zymeworks Inc., priority 2016, published 2020).

Key:
[1] = tested on: BT-474 cells; assay: Growth inhibition in the presence or absence of exogenous ligands (EGF, HRG); type: cell-based, human
[2] = tested on: JIMT-1 cells; assay: Whole cell loading and internalization (AlexaFluor 488 labelled antibody, flow cytometry); type: cell-based, human
[3] = tested on: MCF7 cells; assay: ADCC, NK-92 effector cells E/T 5:1; type: cell-based, human; conditions: NK-92 E/T 5:1, Table 44
Method: The ADCC experiment was conducted as described in Example 11 with E/T: 5:1 with NK-92 effector cells. FIG. 43A and Table 43 show the ADCC results in HER2 2+ JIMT-1 breast tumor cells.

[4] = tested on: SKBr3 cells; assay: ADCC, NK effector cells E:T 5:1; type: cell-based, human
Method: Target cells were pre-incubated with test antibodies (10-fold descending concentrations from 45 μg/ml) for 30 min followed by adding effector cells with effector/target cell ratio of 5:1 and the incubation continued for 6 hours at 37° C.+5% CO2. Samples were tested with 8 concentrations, 10 fold descending from 45 μg/ml. LDH release was measured using LDH assay kit.
Dose-response studies were performed with various concentrations of the samples with a effector/target (E/T) ratios of 5:1. 3:1 and 1:1. Half maximal effective concentration (EC50) values were analyzed with the sigmoidal dose-response non-linear regression fit using GraphPad prism.
The ADCC experiments were performed as described in Example 11 with the exception that NK effector cell to target cell ratio remained constant at 5:1.

[5] = tested on: SKOV3 xenograft; assay: Trastuzumab sensitive ovarian cancer xenograft, antibodies (Example 34); type: in vivo, athymic nude mice
[6] = tested on: HCT-116 cells; assay: ADCC, PBMC effector cells E/T 30:1; type: cell-based, human; conditions: PBMC E/T 30:1, FIG. 40C
Method: (§1) The following experiment was conducted to determine the ability of anti-HER2 biparatopic antibodies to mediate ADCC of tumor cells that express HER2 at the 2+, 1+ and/or 0/1+ levels and that coexpress EGFR and/or HER3 at the 2+ or 1+ level.
(§2) The ADCC experiment was conducted as described in Example 11 and Example 25 with E/T: 5:1 with NK-92 effector cells (FIG. 39), and as described in Example 26 with E/T 30:1 with PBMC effector cells.

[7] = tested on: NCI-N87 cells; assay: ADCC, PBMC effector cells E/T 30:1; type: cell-based, human; conditions: PBMC E/T 30:1, FIG. 40B
Method: as §1, §2

[8] = 200 nM labelled antibody, 24 h at 37° C., Table 40

In the case of “v5019: biparatopic anti-HER2 antibody, Fab-scFv: pertuzumab Fab (ECD2) chain A, trastuzumab scFv (ECD4) chain B, heterodimeric Fc”, the “growth inhibition in the absence of growth stimulatory ligand” value [1] is reported as 70%, the “growth inhibition in the presence of HRG” value ([1]; 10 ng/mL HRG) is reported as roughly 10% and the “% Survival +HRG” value ([1]; 10 ng/mL HRG, 5 days, Table 26) is reported as 92%. The “growth inhibition in the presence of EGF” value ([1]; 50 ng/mL EGF) was 40%, the “% Survival +EGF” value ([1]; 50 ng/mL EGF, 5 days, Table 26) was 56% and the “% Survival Antibody only” value ([1]; 5 days, Table 26) was 31%. The “% Survival +EGF” value ([1]; Table 46) was 81%, the “% Survival +HRG” value ([1]; Table 46) was 133% and the “% Survival Antibody only” value ([1]; Table 46) was 67%. The “Surface 4° C.” value ([2]; 200 nM labelled antibody, 2 h at 4° C., Table 40) was 437, the “Internal 37° C.” value [2, 8] was 1035 and the “Surface 37° C.” value [2, 8] was 5.2. The “reduction of antibody detected on the surface of whole cells” value ([2]; 24 h at 37° C. vs 2 h at 4° C.) was ~57% and ~64%, the “% Max Cell Lysis” value [3] was 27% and the EC50 [3] was roughly 0.69 nM. For the same substance, the “SICBr3 HER2 3+ Max % Target Cell Lysis” value ([4]; NK E:T 5:1, Table 23) was 30%, the EC50 ([4]; NK E:T 5:1, Table 23, read-out: SICBr3 HER2 3+ EC50) was roughly 0.9 nM and the “Mean TV % change from Baseline” value ([5]; Day 29) was “+416%”. The “PR (>10% baseline regression)” value ([5]; Day 29) was 1/11, the “Responders (TV < 50% of control)” value ([5]; Day 29) was 5/11 and the “ZRD (TV < 20 mm3)” value ([5]; Day 29) was 0/11. The “Mean TV (mm3)” value ([5]; Day 29, antibodies 3 mg/kg, IgG 10 mg/kg IV twice per week) was 1001 mm3, the “Time to progression: Tumor doubling time” value ([5]; mouse, in vivo) was 15 days and the maximal cell lysis [6] was “approximately 25%”. For the same substance, the maximal cell lysis [7] was “approximately 23%”.

Where “and” joins values, the source holds several entries; their conditions need not be identical. Identical values can stand only once.
